Molecular target: Muscarinic acetylcholine receptor M4 (Homo sapiens, UniProt P08173)
Experiment: Antagonist activity at recombinant human M4 receptor expressed in CHO cells co-expressing Gqi5 by calcium mobilization assay
Format: functional, cell-based

Amino acid sequences for entries named in this document (tags omitted).
UniProt P08173, whole entry: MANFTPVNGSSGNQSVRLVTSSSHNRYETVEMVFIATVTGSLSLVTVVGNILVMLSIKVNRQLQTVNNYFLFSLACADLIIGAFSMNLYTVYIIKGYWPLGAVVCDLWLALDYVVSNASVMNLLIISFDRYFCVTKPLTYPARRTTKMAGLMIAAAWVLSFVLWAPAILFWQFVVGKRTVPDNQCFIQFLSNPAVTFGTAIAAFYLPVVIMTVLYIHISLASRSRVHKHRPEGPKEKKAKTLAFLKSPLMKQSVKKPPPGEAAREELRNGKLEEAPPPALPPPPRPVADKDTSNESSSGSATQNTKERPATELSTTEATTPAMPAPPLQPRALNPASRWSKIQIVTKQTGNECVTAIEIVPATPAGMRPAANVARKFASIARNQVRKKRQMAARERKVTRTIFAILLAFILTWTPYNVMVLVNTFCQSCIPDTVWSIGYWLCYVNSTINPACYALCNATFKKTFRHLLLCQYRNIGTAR

SMILES	IC50 (read-out: IC50) [nM]	IC50 (read-out: pIC50 (converted)) [nM]
O=C(C1CCN(c2cc(Oc3ccc4ccccc4c3)ncn2)CC1)N1CCc2ccccc2C1	710	692
O=C(C1CCN(c2cc(Oc3c(F)cccc3F)ncn2)CC1)N1CCc2ccccc2C1	2720	

Reference: ChEMBL document CHEMBL4017477, “Synthesis and evaluation of 4,6-disubstituted pyrimidines as CNS penetrant pan-muscarinic antagonists with a novel chemotype” (Bioorg Med Chem Lett, 2017)
